Results on eight compounds are retold here after patent publication US9434727B2, “Substituted 4-phenylpiperidines, their preparation and use” (THE TRUSTEES OF COLUMBIA UNIVERSITY IN THE CITY OF NEW YORK, priority 2014, dated 2016).

SMILES strings stand for the structures.

One assay addresses RBP4-TTR interaction (Homo sapiens (Human), UniProt P02753). In words: TR-FRET (HTRF) assay for retinol-induced RBP4-TTR interaction. Format: biochemical. The conditions noted are these: in the presence of 1 μM retinol; read-out: HTRF assay for antagonists of RBP4-TTR interaction: IC50. The protocol: Bacterially expressed MBP-RBP4 and untagged TTR were used in this assay. […] Human untagged TTR was purchased from Calbiochem. […] HTRF assay was performed in white low volume 384 well plates (Greiner-Bio) in a final assay volume of 16 μl per well. […] All reactions were assembled in the dark under dim red light and incubated overnight at +4° C. wrapped in aluminum foil. […] The TR-FRET signal was expressed as the ratio of fluorescence intensity: Flu665/Flu620×10,000.
A general note: In TR-FRET formats the signal depends on donor and acceptor labels being close together.

The target in a further assay is RBP4 (Homo sapiens (Human), UniProt P02753). In words: Scintillation proximity (SPA) RBP4 binding assay. The following applies: 10 nM 3H-Retinol, 50 nM biotinylated RBP4. As for the experimental part: Scintillation Proximity RBP4 Binding Assay
Untagged human RBP4 purified from urine of tubular proteinuria patients was purchased from Fitzgerald Industries International. It was biotinylated using the EZ-Link Sulfo-NHS-LC-Biotinylation kit from Pierce following the manufacturer's recommendations. Binding experiments were performed in 96-well plates (OptiPlate, PerkinElmer) in a final assay volume of 100 μl per well in SPA buffer (IX PBS, pH 7.4, 1 mM EDTA, 0.1% BSA, 0.5% CHAPS). The reaction mix contained 10 nM ^3H-Retinol (48.7 Ci/mmol; PerkinElmer), 0.3 mg/well Streptavidin-PVT beads, 50 nM biotinylated RBP4 and a test compound. Nonspecific binding was determined in the presence of 20 μM of unlabeled retinol. The reaction mix was assembled in the dark under dim red light. The plates were sealed with clear tape (TopSeal-A: 96-well microplate, PerkinElmer), wrapped in the aluminum foil, and allowed to equilibrate 6 hours at room temperature followed by overnight incubation at +4° C. Radiocounts were measured using a TopCount NXT counter (Packard Instrument Company).
(In general: Scintillation proximity formats need no separation of bound from free tracer.)

Turning to `O=C(c1n[nH]c2c1CCN(CC(F)(F)F)C2)N1CCC(c2ccc(F)c(F)c2C(F)(F)F)CC1` [Compound 125, (4-(3,4-Difluoro-2-(trifluoromethyl)phenyl)piperidin-1-yl)(6-(2,2,2-trifluoroethyl)-4,5,6,7-tetrahydro-1H-pyrazolo[3,4-c]pyridin-3-yl)methanone], the IC50 (usually the concentration at which inhibition is half-maximal) at RBP4-TTR interaction turned out to be 0.0621 µM; on RBP4 it was 0.015 µM.

In the case of `CS(=O)(=O)N1CCc2[nH]nc(C(=O)N3CCC(c4cc(F)ccc4C(F)(F)F)CC3)c2C1` [Compound 141, (4-(5-fluoro-2-(trifluoromethyl)phenyl)piperidin-1-yl)(5-(methylsulfonyl)-4,5,6,7-tetrahydro-1H-pyrazolo[4,3-c]pyridin-3-yl)methanone], the IC50 was 0.0208 µM at RBP4-TTR interaction and 0.00524 µM at RBP4.

Take `COc1ccc2nnc(C(=O)N3CCC(c4cc(C(F)(F)F)cc(C(F)(F)F)c4)CC3)n2c1` [Compound 155, (4-(3,5-bis(trifluoromethyl)phenyl)piperidin-1-yl)(6-methoxy-[1,2,4]triazolo[4,3-a]pyridin-3-yl) methanone]: the IC50 stood at 0.186 µM at RBP4-TTR interaction and 0.0216 µM on RBP4.

Take `CS(=O)(=O)N1CCc2[nH]nc(C(=O)N3CCC(c4ccc(F)cc4C(F)(F)F)CC3)c2C1` [Compound 159, (4-(4-fluoro-2-(trifluoromethyl)phenyl)piperidin-1-yl)(5-(methylsulfonyl)-4,5,6,7-tetrahydro-1H-pyrazolo[4,3-c]pyridine-3-yl)methanone]: the IC50 stood at 0.0523 µM on RBP4-TTR interaction and 0.00806 µM on RBP4.

In the case of `N#Cc1ccc2nnc(C(=O)N3CCC(c4ccc(F)cc4C(F)(F)F)CC3)n2c1` [Compound 160, 3-(4-(4-fluoro-2-(trifluoromethyl)phenyl)piperidine-1-carbonyl)-[1,2,4]triazolo[4,3-a]pyridine-6-carbonitrile], the IC50 was 0.0198 µM on RBP4-TTR interaction and 0.00906 µM at RBP4.

For the compound `N#Cc1ccc2nnc(C(=O)N3CCC(c4cc(Cl)ccc4C(F)(F)F)CC3)n2c1` [Compound 161], the results for the IC50 at RBP4-TTR interaction and on RBP4 were 0.0258 µM and 0.00574 µM, respectively.

As for `O=C(c1n[nH]c2c1CN(CC(F)(F)F)CC2)N1CCC(c2cccc(F)c2Cl)CC1` [Compound 166, (4-(2-Chloro-3-fluorophenyl)piperidin-1-yl)(5-(2,2,2-trifluoroethyl)-4,5,6,7-tetrahydro-1H-pyrazolo[4,3-c]pyridin-3-yl)methanone], the IC50 is 0.0379 µM at RBP4-TTR interaction and 0.0122 µM at RBP4.

For the compound `COCCN1CCc2[nH]nc(C(=O)N3CCC(c4cccc(F)c4Cl)CC3)c2C1` [Compound 168, (4-(2-Chloro-3-fluorophenyl)piperidin-1-yl)(5-(2-methoxyethyl)-4,5,6,7-tetrahydro-1H-pyrazolo[4,3-c]pyridin-3-yl)methanone], the IC50 came out at 0.0813 µM at RBP4-TTR interaction and 0.0155 µM on RBP4.
